The source of these data is ChEMBL document CHEMBL1126629 (J Med Chem, 1993).

Protein sequences, listed by entry. Tags and fused reporters are not part of them.
UniProt P31645, whole entry: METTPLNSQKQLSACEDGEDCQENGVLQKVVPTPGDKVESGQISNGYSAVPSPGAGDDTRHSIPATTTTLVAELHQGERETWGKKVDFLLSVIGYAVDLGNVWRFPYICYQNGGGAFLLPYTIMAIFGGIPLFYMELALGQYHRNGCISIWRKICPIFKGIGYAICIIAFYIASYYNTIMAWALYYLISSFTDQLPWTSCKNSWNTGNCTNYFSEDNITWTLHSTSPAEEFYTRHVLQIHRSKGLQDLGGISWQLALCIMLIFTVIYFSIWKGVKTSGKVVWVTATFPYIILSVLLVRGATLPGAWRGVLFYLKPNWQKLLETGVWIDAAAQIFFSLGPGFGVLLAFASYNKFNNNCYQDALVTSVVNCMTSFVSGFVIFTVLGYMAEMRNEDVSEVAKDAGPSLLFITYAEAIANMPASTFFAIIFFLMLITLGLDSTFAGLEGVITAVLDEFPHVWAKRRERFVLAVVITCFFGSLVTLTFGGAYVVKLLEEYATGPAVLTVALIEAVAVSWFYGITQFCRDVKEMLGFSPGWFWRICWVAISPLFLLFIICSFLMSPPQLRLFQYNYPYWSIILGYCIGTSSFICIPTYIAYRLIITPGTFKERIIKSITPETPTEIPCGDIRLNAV

This experiment addresses Sodium-dependent serotonin transporter (Homo sapiens, UniProt P31645). Description: Ability to inhibit [3H]citalopram binding to serotonin transporter in cynomolgus monkey striatum. As to conditions: target entry is the homologue from another species. The format is tissue-based, Cercopithecidae.

pIC50: −log10 of the molar value.

`COC(=O)C1C(c2ccc(Cl)cc2)CC2CCC1N2C` (stereo unspecified) had a pIC50 of 8.23.
